# Laboratory results: PubChem BioAssay AID602405 (Broad Institute, 2012)
# The list shows a part of the results, in another mix than the full data. Activity calls are given as the source filed them. Cut-off read from the data, not from the text of the source: active = inhibition above about 16% (passing the limit was not always enough); inconclusive = no clear call, values can overlap the other calls; inactive = below that.
# Tested on: UDP-N-acetylbacillosamine N-acetyltransferase PglD (Campylobacter jejuni)
# Experiment: C. jejuni PglD acetyltransferase inhibitors, primary screen, biochemical, DTNB colorimetric, single point (AID 602405)
# Details: purified PglD enzyme, DTNB colorimetric CoA detection; at 12.5 µM; hits give high values
row,SMILES,inhibition
1,CCC(=O)N(c1ccccc1)C1(COC)CCN(CCc2cccs2)CC1,inactive: -1.73%
2,CCC(=O)N(c1ccccc1)C1(COC)CCN(CCn2nnn(CC)c2=O)CC1,inactive: 1.66%
